The values that follow come from patent US20160083400A1, “TRICYCLIC GUANIDINE DERIVATIVE” (Sunovion Pharmaceuticals Inc., priority 2014, published 2016).

The chains behind the UniProt entries cited, without tags or fusion partners.
UniProt Q01064, whole entry: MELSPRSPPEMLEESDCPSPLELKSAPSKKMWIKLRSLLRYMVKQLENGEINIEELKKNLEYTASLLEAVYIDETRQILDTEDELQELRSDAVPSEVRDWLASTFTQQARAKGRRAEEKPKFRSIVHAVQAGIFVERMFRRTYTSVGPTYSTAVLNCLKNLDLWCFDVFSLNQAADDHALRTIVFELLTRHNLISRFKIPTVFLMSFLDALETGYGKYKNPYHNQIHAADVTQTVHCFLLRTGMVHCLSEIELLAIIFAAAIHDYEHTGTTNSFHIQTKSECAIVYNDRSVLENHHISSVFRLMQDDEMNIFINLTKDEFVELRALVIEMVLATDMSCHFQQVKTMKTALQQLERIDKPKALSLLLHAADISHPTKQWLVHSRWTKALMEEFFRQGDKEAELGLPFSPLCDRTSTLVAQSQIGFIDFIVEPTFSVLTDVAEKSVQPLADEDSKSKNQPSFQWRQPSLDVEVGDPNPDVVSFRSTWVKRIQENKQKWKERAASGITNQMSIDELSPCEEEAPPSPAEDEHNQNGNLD

The experiment has as its target PDE1B (Homo sapiens, UniProt Q01064). The experiment can be described thus: In vitro HTRF PDE1 inhibition assay (PDE1B). The note with it: read-out: IC50 (μM), in vitro PDE1B HTRF Assay, 100 nM cyclic GMP, calmodulin, 45 minutes at 37° C. A general note: Time-resolved FRET reads energy transfer from a long-lived donor to a nearby acceptor.

In general, IC50 refers to the midpoint of a concentration-inhibition curve.

Some results are limits rather than exact numbers.

Regarding `CC(C)(C)c1ccc(C2Cn3c(nn4c(C5CCOCC5)ncc4c3=O)N2)cc1` (single isomer, unassigned), the half-inhibitory concentration (IC50) is below 1 µM.

On to `CC(C)c1ccc(C2Cn3c(nn4c(C5CCOCC5)ncc4c3=O)N2)cc1` (single isomer, unassigned), for which the half-inhibitory concentration (IC50) was below 1 µM.

Turning to `CCc1ccc(C2Cn3c(nn4c(C5CCOCC5)ncc4c3=O)N2)cc1` (single isomer, unassigned), the IC50 is below 1 µM.

`Cc1ccc(C2Cn3c(nn4c(C5CCOCC5)ncc4c3=O)N2)c(F)c1` (single isomer, unassigned): the IC50 is below 1 µM.

With `O=c1c2cnc(C3CCCC3)n2nc2n1CC(c1cncc(Cl)c1)N2` (single isomer, unassigned), the IC50 was 1 to 10 µM.

As to `O=c1c2cnc(C3CCOCC3)n2nc2n1CC(c1ccc(C(F)(F)F)cc1)N2` (single isomer, unassigned), the IC50 is below 1 µM.

As to `O=c1c2cnc(C3CCOCC3)n2nc2n1CC(c1ccc(Cl)cc1C(F)(F)F)N2` (single isomer, unassigned), the IC50 lay in the range of 10 to 100 µM.

As to `O=c1c2cnc(C3CCOCC3)n2nc2n1CC(c1ccc(Cl)cc1F)N2` (single isomer, unassigned), the IC50 is below 1 µM.

For `O=c1c2cnc(C3CCOCC3)n2nc2n1CC(c1cccc(Cl)c1)N2` (single isomer, unassigned), the IC50 is below 1 µM.
